Measured values: PubChem BioAssay (EPA / NIEHS)
This is a selection; strong and weak results do not stand in their true shares. Records with an inconclusive call do not appear. Activity calls are given as the source filed them. The calls were made as follows: active = hit-call score of the fitted dose curve at least 0.9, where 1 is the maximum; inconclusive = response in the unintended direction; inactive = score below 0.9.

experiment: LTEA_HepaRG_LDH_cytotoxicity: Cytotoxicity Assessment in the Life Technologies and Expression Analysis (LTEA) Assay (AID 2283563);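 as to AC50: LDH activity released into spent culture medium as a marker of cell death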
How it was run: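 Differentiated human HepaRG cells, plated 48 h beforehand, were switched to serum-free induction medium and exposed for 48 h to eight half-log concentrations (top 100 uM) in 0.5% DMSO. LDH was measured in spent medium; activity was fitted relative to DMSO vehicle.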

Structure (SMILES)	AC50	outcome
O=C1C2CC=CCC2C(=O)N1SC(Cl)(Cl)C(Cl)Cl (stereo not drawn)	active: 66.8 µM	
CN(C(=O)Cc1cccc2occc12)[C@H]1CC[C@@]2(CCCO2)C[C@@H]1N1CCCC1		inactive
CC(C)OP(=S)(OC(C)C)SCCNS(=O)(=O)c1ccccc1	active: 75.1 µM	

experiment: ATG_XTT_Cytotoxicity: Cytotoxicity Assessment in the Attagene TRANS-FACTORIAL HepG2 Assay (AID 2283584);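 as to AC50: cells exposed to compound for 24 h before reading; active means loss of viability signal versus DMSO baseline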
How it was run: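 HepG2 human liver cells, transiently transfected with multiple GAL4-UAS reporter units, were dosed and read at 24 h by XTT as cell number. Loss of signal was fitted relative to DMSO negative control baseline.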

Structure (SMILES)	outcome	AC50
CCCCOP(OCCCC)OCCCC	inactive	
O=P(Cl)(Oc1ccccc1)Oc1ccccc1	inactive	
CC(C)CCCCCCCOP(OCCCCCCCC(C)C)Oc1ccccc1	inactive	
Cc1cc([N+](=O)[O-])cc([N+](=O)[O-])c1O	inactive	
O=C(Cl)Oc1ccccc1	inactive	
O=C(Cl)OCCOC(=O)Cl	inactive	
O=[P+](Oc1ccccc1)Oc1ccccc1	inactive	
O=[N+]([O-])c1ccc([N+](=O)[O-])cc1	inactive	
N#CSc1ccc([N+](=O)[O-])cc1[N+](=O)[O-]		active: 52.3 µM
ClP(Cl)c1ccccc1	inactive	

experiment: Tanguay_ZF_120hpf_MORT_legacy: (Legacy) Oregon State University Tanguay Lab 120 Hour Post-fertilization zebrafish Assay for Mortality (AID 2283633);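 as to AC50: fitted as increase in binary mortality versus DMSO negative control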
How it was run: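 Dechorionated Tropical 5D wild-type zebrafish embryos, one per well from 6 hpf, were statically exposed at 28C in the dark until 120 hpf (0.64% DMSO final). Mortality was scored as present/absent by brightfield microscopy, fitted positively versus DMSO.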

Structure (SMILES)	AC50	outcome
Cc1cc([N+](=O)[O-])cc([N+](=O)[O-])c1O	active: 3.05 µM	
O=C1C2CC=CCC2C(=O)N1SC(Cl)(Cl)C(Cl)Cl (stereo not drawn)	active: 32.8 µM	
CN(C(=O)Cc1cccc2occc12)[C@H]1CC[C@@]2(CCCO2)C[C@@H]1N1CCCC1		inactive
CC(C)OP(=S)(OC(C)C)SCCNS(=O)(=O)c1ccccc1		inactive

experiment: Tanguay_ZF_120hpf_YSE_legacy: (Legacy) Oregon State University Tanguay Lab 120 Hour Post-fertilization zebrafish Assay for Yolk Sac Edema (AID 2283634);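 as to AC50: actives raise the incidence of yolk sac edema above the DMSO baseline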
How it was run: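 Tropical 5D wild-type embryos, dechorionated with pronase at 4 hpf, were exposed singly from 6 hpf to 120 hpf under static, sealed, dark conditions at 28C with 0.64% DMSO final. Yolk sac edema was scored present/absent by brightfield microscopy.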

Structure (SMILES)	AC50	outcome
Cc1cc([N+](=O)[O-])cc([N+](=O)[O-])c1O	active: 1.19 µM	
O=C1C2CC=CCC2C(=O)N1SC(Cl)(Cl)C(Cl)Cl (stereo not drawn)		inactive
CN(C(=O)Cc1cccc2occc12)[C@H]1CC[C@@]2(CCCO2)C[C@@H]1N1CCCC1		inactive
CC(C)OP(=S)(OC(C)C)SCCNS(=O)(=O)c1ccccc1		inactive

experiment: Tanguay_ZF_120hpf_AXIS_legacy: (Legacy) Oregon State University Tanguay Lab 120 Hour Post-fertilization zebrafish Assay for Body Axis Malformation (AID 2283635)
How it was run: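 Tropical 5D wild-type zebrafish embryos, dechorionated with pronase at 4 hpf, were placed singly in wells at 6 hpf and exposed statically to test chemical (0.64% DMSO final) at 28C until 120 hpf, then scored by brightfield for body axis defects.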

Structure (SMILES)	outcome
Cc1cc([N+](=O)[O-])cc([N+](=O)[O-])c1O	inactive
O=C1C2CC=CCC2C(=O)N1SC(Cl)(Cl)C(Cl)Cl (stereo not drawn)	inactive
CN(C(=O)Cc1cccc2occc12)[C@H]1CC[C@@]2(CCCO2)C[C@@H]1N1CCCC1	inactive

experiment: Tanguay_ZF_120hpf_EYE_legacy: (Legacy) Oregon State University Tanguay Lab 120 Hour Post-fertilization zebrafish Assay for Eye Malformation (AID 2283636);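 also: binary presence or absence of eye malformation scored by brightfield in 120 hpf larvae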
How it was run: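 Binary brightfield scoring of eye defects at 120 hpf after static exposure from 6 hpf of single pronase-dechorionated wild-type embryos (28C, 0.64% DMSO). Non-mortality endpoints omitted where embryos died; fit vs DMSO.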

Structure (SMILES)	outcome
Cc1cc([N+](=O)[O-])cc([N+](=O)[O-])c1O	inactive
O=C1C2CC=CCC2C(=O)N1SC(Cl)(Cl)C(Cl)Cl (stereo not drawn)	inactive
CN(C(=O)Cc1cccc2occc12)[C@H]1CC[C@@]2(CCCO2)C[C@@H]1N1CCCC1	inactive
CC(C)OP(=S)(OC(C)C)SCCNS(=O)(=O)c1ccccc1	inactive
